The values below come from the supplement of paper PMC8498969.

Assay [1] has as its system HEK293. Nature of the assay: maximal inhibition of ZIKV NS1 production (% inhibition); higher = stronger antiviral effect. As for the experimental part: (§1)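 HEK293 cells in 1536-well plates were pre-treated with compound for 1 h, infected with ZIKV (MOI 1) for 24 h, and NS1 antigen (intra- plus extracellular) was measured by TR-FRET. Confirmation used 11-point 1:3 dilutions, and IC50 and maximal inhibition were fitted in GraphPad Prism.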

In assay [2] the test system is HEK293. Nature of the assay: IC50 for inhibition of ZIKV NS1 production. As for the experimental part: as §1
Assay [3] deals with HEK293. As to the kind of experiment: cytotoxicity IC50 (ATP content, uninfected cells); higher = less cytotoxic. The note with it: infection: none.

By IC50 is commonly meant the concentration at which inhibition is half-maximal. In the assay with HEK293 [1], `Cn1cc(-c2cnn3c(N)c(Br)c([C@@H]4CCCNC4)nc23)cn1` yielded a maximal inhibition of 89. Further, the IC50 with HEK293 [2] amounted to 1.2 µM. In addition, in the assay with HEK293 [3], the “cytotoxicity IC50” value was more than 100 µM.
`CN[C@H]1CCc2cc(OC)c(OC)c(OC)c2-c2ccc(OC)c(=O)cc21` came in with a maximal inhibition in the assay with HEK293 [1] of 57. In addition, the “cytotoxicity IC50” value in the assay with HEK293 [3] was more than 100 µM.
As for `CNCCCC12CCC(c3ccccc31)c1ccccc12`, the maximal inhibition in the assay with HEK293 [1] is 89. This compound gave a half-maximal inhibitory concentration (IC50) in the assay on HEK293 [2] of 18 µM. In the assay on HEK293 [3], the “cytotoxicity IC50” value turned out to be 70 µM.
Taken in the same sequence, the figures for `CC(=O)[O][Hg][c]1ccccc1` were 109, 4.6 µM and 3 µM.
Taken in the same sequence, the figures for `N[C@@H](Cc1ccc(N(CCCl)CCCl)cc1)C(=O)O` were 101, 10 µM and 80 µM.
